These are literature values, as cited in paper PMC10947368.

Chains of the proteins cited; added tags and fusions are not shown. Residues count along the entry.
UniProt P01589, 22-240, chain 1 of 3: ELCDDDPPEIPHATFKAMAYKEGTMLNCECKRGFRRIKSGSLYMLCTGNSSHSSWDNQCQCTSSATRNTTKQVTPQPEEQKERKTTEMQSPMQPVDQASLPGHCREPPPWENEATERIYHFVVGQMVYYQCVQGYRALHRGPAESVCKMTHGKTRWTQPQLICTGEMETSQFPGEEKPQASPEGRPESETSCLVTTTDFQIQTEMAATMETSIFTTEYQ
UniProt P60568, 21-153: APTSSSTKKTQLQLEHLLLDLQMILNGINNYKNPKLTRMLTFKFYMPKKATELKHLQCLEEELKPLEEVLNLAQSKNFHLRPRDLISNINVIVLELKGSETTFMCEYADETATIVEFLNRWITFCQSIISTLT

The data set has as its target IL-2Rα/IL-2Rβ/γc heterotrimeric receptor (Homo sapiens) (UniProt P01589).

For the substance Interleukin-2 (from UniProt P60568), the Kd (in general, the equilibrium constant for the complex coming apart) is 0.01 nM.
